From patent US20100323955A1, “METHODS FOR TREATING OBESITY AND OBESITY RELATED DISEASES AND DISORDERS” (AMYLIN PHARMACEUTICALS, INC., priority 2007, published 2010)

Test: Example 7: amylin and PYY(3-36) in DIO rats, body weight and body composition
Type: in vivo, rat
Procedure: PYY(3-36) was administered by mini-pump at a range of doses (100, 200, 400, 800, 1000 μg/kg/day). Amylin 100 μg/kg/day (dissolved in 50% DMSO sterile water), PYY(3-36) (dissolved in 50% DMSO sterile water) or vehicle was administered by mini-pump. Food intake and body weight was recorded daily. Body composition was measured prior to and after drug treatment using NMR (Echo Medical Systems, Houston, Tex.). For body composition measurements, rats were briefly placed (˜1 min) in a well-ventilated plexiglass tube that was then inserted into a specialized rodent NMR machine. Rats were scanned prior to pump implantation and on the final day of the experiment. This enabled the calculation of changes in actual grams of fat and dry lean tissue (e.g., grams of body fat after treatment−grams of body fat at baseline=change in grams of body fat) and changes in % body composition for fat and dry lean tissue (e.g., % body fat after treatment−% body fat at baseline=change in % body fat).

## PYY(3-36)
After two weeks, FIG. 16B
  changes in body fat (fat mass loss): Increasing amount of fat mass loss
Two weeks, PYY(3-36) 1000 μg/kg/day, amylin 100 μg/kg/day, mini-pump, FIG. 16A
  vehicle-corrected decrease in percent body weight: ~9%
